Consider six compounds from BindingDB's records for doi:10.1021/acs.jmedchem.0c00745 (National Institute of Diabetes and Digestive and Kidney …, 2020).

Structures are written as SMILES.

The test addresses T1, P2Y purinoceptor 14 (Homo sapiens, UniProt Q15391).
T1 sequence (Q15391 whole entry): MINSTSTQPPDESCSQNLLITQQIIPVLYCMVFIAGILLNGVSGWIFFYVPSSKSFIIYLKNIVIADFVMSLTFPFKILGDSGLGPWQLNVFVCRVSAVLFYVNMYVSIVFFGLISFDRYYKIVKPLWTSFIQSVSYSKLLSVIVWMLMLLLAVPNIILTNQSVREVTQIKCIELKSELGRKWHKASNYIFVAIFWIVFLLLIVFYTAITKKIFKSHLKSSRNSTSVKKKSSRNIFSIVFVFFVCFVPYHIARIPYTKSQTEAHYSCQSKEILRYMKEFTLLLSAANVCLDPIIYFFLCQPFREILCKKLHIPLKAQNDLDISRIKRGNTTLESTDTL
Description: Inhibition of MRS4174 binding to human P2Y14R expressed in CHO cells pre-incubated for 30 mins before MRS4174 addition and further incubated for 30 mins at pH 7.4 by flow cytomtery based competitive fluorescence assay.

`O=C(O)c1[nH]c(-c2ccc(C3CCNCC3)cc2)cc1-c1cn(-c2ccc(C(F)(F)F)cc2)nn1` gave an IC50 of 11.1 µM.

In turn, `COCCOCCOCCOCCOCCOCCOCCC(=O)N1CCC(c2ccc(-c3cc(C(=O)O)cc4cc(-c5ccc(C(F)(F)F)cc5)ccc34)cc2)CC1` came in with a concentration for half-maximal inhibition (IC50) of 1.41 µM.

For the compound `CC(=O)NCCOCCOCCOCCOCCOCCOCCOCCC(=O)N1CCC(c2ccc(-c3cc(C(=O)O)cc4cc(-c5ccc(C(F)(F)F)cc5)ccc34)cc2)CC1`, the IC50 turned out to be 0.979 µM.

Compound `NC(=O)c1ccc(-c2cc(C(=O)O)cc(C(=O)Nc3cc4cc(C(F)(F)F)ccc4[nH]3)c2)cc1` displayed an IC50 of 2.44 µM.

For `CC(C)(C)OC(=O)NCCOCCOCCOCCOCCOCCOCCOCCC(=O)N1CCC(c2ccc(-c3cc(C(=O)O)cc4cc(-c5ccc(C(F)(F)F)cc5)ccc34)cc2)CC1`, the IC50 came out at 2.83 µM.

For `NC(=O)c1ccc(-c2cc(C(=O)O)cc(C(=O)Nc3nc4cc(C(F)(F)F)ccc4[nH]3)c2)cc1`, the IC50 was determined as 24.4 µM.
